{"source": "patent US5041581A", "about": "(priority 1986, dated 1991)", "key": {"[1]": {"experiment": "Encapsulation efficiency of platinum complexes in multilamellar liposomes (UV spectrophotometry / x-ray fluorescence)", "assay_type": "physicochemical", "settings": "lipophilic cisplatin analogues incorporated in liposomes (Table 12)", "description": "Multilamellar lipid vesicles (MLV) or liposomes containing incorporated platinum complexes (PT) of the above descriptions were prepared as previously described for other compounds (Lopez-Berestein et al (4)(1984) Clin. Exp. Metastasis V 2 pp 127-137 and Lopez-Berestein et al (1983) J Inf Dis V 147 pp 937-945). In brief, chloroform solutions of lipids (at the desired molar ratio) and PT were mixed at a lipid-PT ratio of 15:1 and the chloroform was evaporated in a rotary evaporator (Buchi, Brinkmann Instruments, Westbury, NY). The dried lipid film obtained, containing PT, was then dispersed with an aqueous solution (0.9% NaCl in water) by vigorous handshaking. The suspension was subsequently centrifuged at 30,000 ×g for 45 minutes, the supernatant was discarded, and the pellet containing PT was resuspended in 0.9% NaCl solution.\nElemental platinum (Pt) was determined in the liposome suspension and the pellet by x-ray fluorescence as previously reported (Seifert et al (1979) Proc. Amer. Ass'n. Cancer Res. V 20 p. 168) in the Department of Analytical Chemistry, The University of Texas Medical School at Houston, TX. The amount of platinum complex (PT) was determined in the supernatant by ultraviolet (UV) spectrophotometry using a wavelength of 224 nm. The EE was initially calculated with the two following formulas:\n1. EE =Pt in pellet/total Pt in the initial liposome suspension\n2. […]"}, "[2]": {"experiment": "Solubility in organic solvents and water", "assay_type": "physicochemical"}}, "data": [{"substance": "cis-bis-neodecanoato-ethylenediamine-platinum(II)", "values": [{"measurement": "Encapsulation Efficiency", "setting": "[1]", "value": 82, "unit": "%"}, {"measurement": "solubility in methanol and chloroform, in words", "setting": "[2]; methanol, chloroform (and other organic solvents where stated)", "value": "highly soluble"}, {"measurement": "solubility in water, in words", "setting": "[2]; water", "value": "insoluble"}]}]}
